Experimental data: ChEMBL document CHEMBL1123414, “Neurochemistry of aging. 1. Toxins for an animal model of Alzheimer's disease” (J Med Chem, 1986)

By UniProt entry, the sequences of proteins in these tests, tags left out. Where a name states a change or a piece, a line headed by the entry shows the natural chain unless it says otherwise.
UniProt Q8BGY9: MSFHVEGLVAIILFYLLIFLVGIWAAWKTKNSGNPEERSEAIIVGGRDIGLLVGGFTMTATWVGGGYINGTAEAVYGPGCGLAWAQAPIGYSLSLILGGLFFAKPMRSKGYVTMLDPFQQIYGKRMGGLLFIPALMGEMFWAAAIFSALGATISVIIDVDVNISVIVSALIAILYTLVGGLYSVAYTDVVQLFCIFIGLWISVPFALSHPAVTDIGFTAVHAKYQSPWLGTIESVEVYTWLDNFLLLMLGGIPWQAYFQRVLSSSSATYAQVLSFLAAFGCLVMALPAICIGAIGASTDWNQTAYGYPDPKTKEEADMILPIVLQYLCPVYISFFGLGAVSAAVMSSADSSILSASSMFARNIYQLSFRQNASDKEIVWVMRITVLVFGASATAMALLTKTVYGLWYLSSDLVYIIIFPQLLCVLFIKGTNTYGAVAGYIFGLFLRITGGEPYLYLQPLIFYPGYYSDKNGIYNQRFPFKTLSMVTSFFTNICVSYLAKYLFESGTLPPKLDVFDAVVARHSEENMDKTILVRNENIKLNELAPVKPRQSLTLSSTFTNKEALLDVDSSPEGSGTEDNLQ

Molecular target: High affinity choline transporter 1 (Mus musculus, UniProt Q8BGY9)
Assay: In vitro ability to inhibit the transport of [3H]choline in to high affinity choline transport system HAChT

`OCC[N+]1(C2CC2)CC1` gave an IC50 of 3.9 µM.
